Experimental data taken from ChEMBL document CHEMBL5230100, “Novel quinazoline-based EGFR kinase inhibitors: A review focussing on SAR and molecular docking studies (2015-2019)” (Eur J Med Chem, 2020).

System: DNA
Assay: Binding affinity to DNA (unknown origin) by UV-visible spectroscopic method
Assay type: nucleic-acid assay

CCCN(c1ccc(F)c(Cl)c1)c1ncnc2cc(OC)c(OCCCN3CCOCC3)cc12 was tested, and the K was 7.1 10^5/M.
